The procedure of this series:
C. […] The amount of either tested drug for one kg mouse was prepared as 10 ml solution, and 10 micro-liters per gram of mouse were injected intraperitoneally, once or twice daily, for 10 consecutive days for the Kunming mice with Sarcoma S-180 and Hepatoma H22, and for 15 consecutive days for C57BL/6 mice with melanoma B16. 50% glucose, 30 ml/kg, was given by gavage to selected groups of mice receiving the tested drug 60 to 90 minutes before each injection. One group of mice received saline only while another group of mice received the glucose treatment without the tested drug; these groups served as the saline-only control and the glucose-only control, respectively. A third group of mice received intraperitoneal injection of cyclophosphamide (CTX), or 5-Fluorouracil (5FU), 25 to 50 mg/kg body weight, was included in some experiments as positive control. At the end of the experiment, mouse body weight was taken, and the Sarcoma S-180, or Hepatoma H22 tumors were dissected and weighted, while the tumor size of melanoma B16 was measured using a caliper. Melanoma B16 tumor volume was calculated using the following equation: Tumor volume=S*S*L*0.5, where S is the short diameter, and L stands for long diameter of the tumor according to Beck M T et al. (Cancer Research 63:3598, 2003).

SMILES strings stand for the structures. Where two headings read alike, the source gives them in different places.

Consider `C1N2CN3CN1CN(C2)C3.O=C(O)C(O)c1ccccc1` (stereo not drawn) [MAIN, methenamine mandelate], for which, under “mouse, in vivo”, the Animal growth retardation entry was “significant animal growth retardation” and the “General appearance of mice during administration” value is “all mice looked healthy”. In addition, the “Toxicity (conclusion)” value (tumor-bearing mice, i.p. treatment) was “slight toxicity”.

As to `C1N2CN3CN1CN(C2)C3` [URIN, Methenamine], where the note is “mouse, in vivo”, the Animal growth retardation result is on record as “no significant animal growth retardation” and the “General appearance of mice during administration” value is recorded as “all mice looked healthy”. For the same compound, for the setting “mouse, in vivo, ip”, the “Toxicity (conclusion)” value was “no significant toxicity”.

The values are drawn from patent US20060079463A1, “Anticancer compositions comprising methenamine” (priority 2003, published 2006).
